Patent US20250262316A1, “ANTIBODY-DRUG CONJUGATE AND APPLICATION THEREOF” (Bio-Thera Solutions, Ltd., priority 2021, published 2025)

Columns and labels:
[1] = target: T1, Mouse B7-H3 (Mus musculus, UniProt Q8VE98); test: Species specificity ELISA, mouse B7-H3; format: binding
T1 construct: purchased SinoBiological 50973-M08H
T1 sequence (Q8VE98 29-316): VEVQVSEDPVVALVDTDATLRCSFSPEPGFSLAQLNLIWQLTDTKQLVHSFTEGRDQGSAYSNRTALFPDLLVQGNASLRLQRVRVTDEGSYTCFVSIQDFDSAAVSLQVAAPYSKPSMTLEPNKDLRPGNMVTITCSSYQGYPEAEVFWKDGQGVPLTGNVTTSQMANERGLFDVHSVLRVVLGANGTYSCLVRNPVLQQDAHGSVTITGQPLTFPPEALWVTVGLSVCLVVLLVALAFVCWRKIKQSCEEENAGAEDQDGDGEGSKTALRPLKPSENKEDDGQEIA
Procedure: The day before the experiment, the target antigens cynomolgus monkey B7-H3 (novoprotein CA61), mouse B7-H3 (SinoBiological, 50973-M08H) and hB7-H3-his were each diluted to 2 μg/mL with 1×PBS and added to a ELISA plate (96-well plate) at 1001 μL/well (two rows for each antigen), and the wells were coated overnight at 4° C. […]

[2] = target: T2, hB7-H3-His (Homo sapiens, UniProt Q5ZPR3); test: BiaCore T200 affinity of ADC and Antibody V3 for hB7-H3-His; format: binding; conditions: antigen hB7-H3-His, 1:1 kinetic model
T2 construct: 10xHis (C); made in house; host or cells: HEK293F (transient transfection)
T2 sequence (Q5ZPR3 with tags, fused parts or gaps): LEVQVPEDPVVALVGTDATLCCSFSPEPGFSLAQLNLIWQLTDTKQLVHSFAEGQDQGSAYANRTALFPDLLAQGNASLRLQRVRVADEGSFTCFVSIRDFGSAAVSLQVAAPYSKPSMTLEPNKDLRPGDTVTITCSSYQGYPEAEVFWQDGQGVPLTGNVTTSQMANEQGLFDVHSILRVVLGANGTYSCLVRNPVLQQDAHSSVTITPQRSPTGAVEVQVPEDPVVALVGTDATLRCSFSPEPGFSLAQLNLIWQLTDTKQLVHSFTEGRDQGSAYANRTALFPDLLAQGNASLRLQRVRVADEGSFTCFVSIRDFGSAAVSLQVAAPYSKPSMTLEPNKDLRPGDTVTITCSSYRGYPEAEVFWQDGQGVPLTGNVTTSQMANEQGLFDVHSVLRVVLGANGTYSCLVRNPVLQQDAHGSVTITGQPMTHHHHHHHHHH
Procedure: Experiment results were analyzed using data analysis software Evaluation Software 3.1. The sensing signals acquired from the experiment flow channels for the samples were subjected to double subtraction (minus values of reference flow channels and blank control), and the fitting was performed using a “1:1” kinetic model to obtain the kinetic parameters (ka: association rate; kd: dissociation rate; kD: equilibrium dissociation constant) for the binding of each sample to hB7-H3-His.

[3] = test system: MDA-MB-468 cells; test: Internalization of humanized antibodies by flow cytometry, MDA-MB-468 cells; format: cell-based
Procedure: (§1) 30 μg/mL of humanized antibody was prepared by using a cell washing solution (PBS containing 2% FBS) pre-cooled on ice and well mixed with cells (MDA-MB-468 cells or N87 cells, 500,000 cells) according to a volume ratio of 1:1 (the final volume is 100 μL), and the mixture was incubated in an ice bath for 1 h; the mixture was then centrifuged at 1200 r/min and 4° C. for 5 min, and the supernatant was discarded; the cells were resuspended in the cell washing solution pre-cooled on ice and centrifuged at 1200 r/min and 4° C. for 5 min and the supernatant was removed, and the procedure was repeated twice; the cells were resuspended in 200 μL of cell washing solution pre-cooled on ice, incubated at 37° C. for 2 h to internalize the antibody bound to the cell surface and then transferred to an ice bath, and the cell washing solution pre-cooled on ice was added to terminate the internalization; the cells were centrifuged at 1200 r/min and 4° C. for 5 min, the supernatant was discarded, 100 μL of a PE-labeled goat anti-human IgG Fc secondary antibody diluent (Invitrogen, cat #12-4998-82, prepared with the cell washing solution pre-cooled on ice and a PE-labeled goat anti-human IgG Fc secondary antibody (500:1)) was added; the cells were resuspended, and incubated at 4° C. for 30 min in the absence of light and centrifuged at 1200 r/min and 4° C. for 5 min, and the supernatant was discarded; the cells were resuspended in the cell washing solution pre-cooled on ice and centrifuged at 1200 r/min and 4° C. for 5 min and the supernatant was discarded, and the cells were resuspended in 1×PBS pre-cooled on ice and centrifuged at 1200 r/min and 4° C. for 5 min and the supernatant was discarded; 200 μL of 1×PBS pre-cooled on ice was added to resuspend the cells, and the mean fluorescence intensity was detected with a flow cytometer.

[4] = test system: N87 cells; test: Internalization of humanized antibodies by flow cytometry, N87 cells; format: cell-based
Procedure: as §1

[5] = test system: human liver cancer Hep 3B cell line; test: Subcutaneous xenograft model of human liver cancer Hep 3B cell line; conditions: Day 25, 5 mg/kg i.v. single administration

Molecule | binding to mouse B7-H3 [1] | ka (association rate) [2] | kd (dissociation rate) [2] | Fluorescence intensity of control group (before endocytosis) [3] | Fluorescence intensity after endocytosis ([3]; 37° C. for 2 h) | Percentage of endocytosis ([3]; 37° C. for 2 h) | Fluorescence intensity of control group (before endocytosis) [4] | Fluorescence intensity after endocytosis ([4]; 37° C. for 2 h) | Percentage of endocytosis ([4]; 37° C. for 2 h) | Mean tumor volume ± SEM [5] | TGI [5]
Antibody V3: Humanized anti-B7-H3 antibody: VH SEQ ID NO: 36, CH 32, VL 40, CL 34; heavy chain SEQ ID NO: 50, light chain 52 (antibody) heavy: EVQLVQSGAEVKKSGESLKISCKASGYTFTDYDINWVRQMPGKGLEWIGWIFPGDDTTKYNEKFKGQVTLSADKSTNTAYMQWSSLKASDTAMYYCARSPSFDYWGQGTLVTVSSASTKGPSVFPLAPSSKSTSGGTAALGCLVKDYFPEPVTVSWNSGALTSGVHTFPAVLQSSGLYSLSSVVTVPSSSLGTQTYICNVNHKPSNTKVDKKV[letters of human IgG1 Fc omitted] light: QIVLTQSPGTLSLSPGERATLSCSASSTIGFMYWYQQKPGQAPRRWIYDTSKLASGVPDRFSGSGSGTDYTLTISRLEPEDFAVYYCHQRSSYPTFGQGTKVEIKRTVAAPSVFIFPPSDEQLKSGTASVVCLLNNFYPREAKVQWKVDNALQSGNSQESVTEQDSKDSTYSLSSTLTLSKADYEKHKVYACEVTHQGLSSPVTKSFNRGEC | did not bind | 886000 M⁻¹ s⁻¹ | 0.000155 s⁻¹ | 47757.42 | 36060.02 | 24.49% | 246249.85 | 193742.47 | 21.32% |  | 
ADC2 (conjugate) heavy: EVQLVQSGAEVKKSGESLKISCKASGYTFTDYDINWVRQMPGKGLEWIGWIFPGDDTTKYNEKFKGQVTLSADKSTNTAYMQWSSLKASDTAMYYCARSPSFDYWGQGTLVTVSSASTKGPSVFPLAPSSKSTSGGTAALGCLVKDYFPEPVTVSWNSGALTSGVHTFPAVLQSSGLYSLSSVVTVPSSSLGTQTYICNVNHKPSNTKVDKKV[letters of human IgG1 Fc omitted] light: QIVLTQSPGTLSLSPGERATLSCSASSTIGFMYWYQQKPGQAPRRWIYDTSKLASGVPDRFSGSGSGTDYTLTISRLEPEDFAVYYCHQRSSYPTFGQGTKVEIKRTVAAPSVFIFPPSDEQLKSGTASVVCLLNNFYPREAKVQWKVDNALQSGNSQESVTEQDSKDSTYSLSSTLTLSKADYEKHKVYACEVTHQGLSSPVTKSFNRGEC |  |  |  |  |  |  |  |  |  | 858 ± 112 mm^3 | 62.02%
